# Results as given in US20070225252A1, “Ketogenic Saccharides” (priority 2004, published 2007).
# Assay: Water solubility of the isolated product
# Type: physicochemical
# Settings: qualitative
row,Substance,solubility in water
1,arabinose (R)-3-hydroxybutyrate ester [KTX 0312],water-soluble
2,fructose (R)-3-hydroxybutyrate ester [KTX 0311],water-soluble
3,sorbitol 3-hydroxybutyrate tri-ester [KTX 0313],water-soluble
